In experiment [1] the test system is mouse B6 class I antigens (D^b or K^b molecules on the surface of RMA-S cells). Nature of the experiment: Peptide binding to C57Bl/6 murine class I MHC using RMA-S cells (flow cytometry). Format: cell-based. The conditions noted are these: 9-mer peptides within p117-139. The procedure:
Peptide binding to C57BI/6 murine MHC was confirmed using the leukemia cell line RMA-S, as described by Ljunggren et al., Nature 346:476-480, 1990. In brief, RMA-S cells were cultured for 7 hours at 26° C. in complete medium supplemented with 1% FCS. A total of 10^6 RMA-S cells were added into each well of a 24-well plate and incubated either alone or with the designated peptide (25 ug/ml) for 16 hours at 26° C. and additional 3 hours at 37° C. in complete medium. Cells were then washed three times and stained with fluorescein isothiocyanate-conjugated anti D^b or anti-K^b antibody (PharMingen, San Diego, Calif.). Labeled cells were washed twice, resuspended and fixed in 500 ul of PBS with 1% paraformaldehyde and analyzed for fluorescence intensity in a flow cytometer (Becton-Dickinson FACSCALIBUR™). The percentage of increase of D^b or K^b molecules on the surface of the RMA-S cells was measured by increased mean fluorescent intensity of cells incubated with peptide compared with that of cells incubated in medium alone.
(In general: A flow cytometer gives signals particle by particle.)

In experiment [2] the test system is targets incubated with WT1 peptides (EL-4) and WT1 positive tumor cells (TRAMP-C, BLK-SV40). The experiment in a line: CTL from mice immunized with WT1 peptides, chromium release assay. Format: in vivo, B6 mice. Here is the method:
Mice were immunized with the peptides capable of binding to murine class I MHC. Following immunization, spleen cells were stimulated in vitro and tested for the ability to lyse targets incubated with WT1 peptides. CTL were evaluated with a standard chromium release assay (Chen et al., Cancer Res. 54:1065-1070, 1994). 10^6 target cells were incubated at 37° C. with 150 μCi of sodium ^51Cr for 90 minutes, in the presence or absence of specific peptides. Cells were washed three times and resuspended in RPMI with 5% fetal bovine serum. For the assay, 10^4 51Cr-labeled target cells were incubated with different concentrations of effector cells in a final volume of 200 μl in U-bottomed 96-well plates. Supernatants were removed after 4 to 7 hours at 37° C., and the percentage specific lysis was determined by the formula: % specific lysis=100×(experimental release−spontaneous release)/(maximum release−spontaneous release).
P117-139, a peptide with motifs appropriate for binding to class I and class II MHC, was identified as described above using TSITES and BIMAS HLA peptide binding prediction analyses. Mice were immunized as described in Example 3. Following immunization, spleen cells were stimulated in vitro and tested for the ability to lyse targets incubated with WT1 peptides, as well as WT1 positive and negative tumor cells. CTL were evaluated with a standard chromium release assay. […]

Marks after values point to notes of the source that are not given here.

As to RMFPNAPYL, the “binding to H-2^b class I molecules” value in experiment [1] is given as “bind to H-2^b class I molecules”. For the same sequence, in experiment [2] (EL-4 pulsed with peptide, E:T 25:1 (FIG. 13A)), the “lysis of targets incubated with 9-mer peptide by CTL generated by immunization with p117-139” value is listed as “lysed targets”. In addition, in experiment [2] (FIGS. 13B and 13C), the “peptide specific lysis after restimulation of the p117-139 specific CTL line with the 9-mer” value was “demonstrated peptide specific lysis”.

(Values after patent publication US7915393B2 (Corixa Corporation, priority 2001, dated 2011).)
